In EP0361977A2, “Peptides having T cell suppressor activity” (IMM[…] INSTITUTE, INC., priority 1988, dated 1990):

System: intestinal and serum enzymes
Assay: Enzymatic stability in rat intestinal juice and human serum (HPLC)
Settings: 37°C in rat intestinal juice and human serum for up to 120 minutes

Arg-Lys-Asp-Val-Dimethylamide [reference compound]
degradation by intestinal and serum enzymes (HPLC): totally digested after only a few seconds
